The source of these data is paper PMC12195256, “Binding and Activating of Analgesic Crotalphine with Human TRPA1” (Membranes, 2025).

The chains behind the UniProt entries cited, without tags or fusion partners.
UniProt O75762, whole entry C621S: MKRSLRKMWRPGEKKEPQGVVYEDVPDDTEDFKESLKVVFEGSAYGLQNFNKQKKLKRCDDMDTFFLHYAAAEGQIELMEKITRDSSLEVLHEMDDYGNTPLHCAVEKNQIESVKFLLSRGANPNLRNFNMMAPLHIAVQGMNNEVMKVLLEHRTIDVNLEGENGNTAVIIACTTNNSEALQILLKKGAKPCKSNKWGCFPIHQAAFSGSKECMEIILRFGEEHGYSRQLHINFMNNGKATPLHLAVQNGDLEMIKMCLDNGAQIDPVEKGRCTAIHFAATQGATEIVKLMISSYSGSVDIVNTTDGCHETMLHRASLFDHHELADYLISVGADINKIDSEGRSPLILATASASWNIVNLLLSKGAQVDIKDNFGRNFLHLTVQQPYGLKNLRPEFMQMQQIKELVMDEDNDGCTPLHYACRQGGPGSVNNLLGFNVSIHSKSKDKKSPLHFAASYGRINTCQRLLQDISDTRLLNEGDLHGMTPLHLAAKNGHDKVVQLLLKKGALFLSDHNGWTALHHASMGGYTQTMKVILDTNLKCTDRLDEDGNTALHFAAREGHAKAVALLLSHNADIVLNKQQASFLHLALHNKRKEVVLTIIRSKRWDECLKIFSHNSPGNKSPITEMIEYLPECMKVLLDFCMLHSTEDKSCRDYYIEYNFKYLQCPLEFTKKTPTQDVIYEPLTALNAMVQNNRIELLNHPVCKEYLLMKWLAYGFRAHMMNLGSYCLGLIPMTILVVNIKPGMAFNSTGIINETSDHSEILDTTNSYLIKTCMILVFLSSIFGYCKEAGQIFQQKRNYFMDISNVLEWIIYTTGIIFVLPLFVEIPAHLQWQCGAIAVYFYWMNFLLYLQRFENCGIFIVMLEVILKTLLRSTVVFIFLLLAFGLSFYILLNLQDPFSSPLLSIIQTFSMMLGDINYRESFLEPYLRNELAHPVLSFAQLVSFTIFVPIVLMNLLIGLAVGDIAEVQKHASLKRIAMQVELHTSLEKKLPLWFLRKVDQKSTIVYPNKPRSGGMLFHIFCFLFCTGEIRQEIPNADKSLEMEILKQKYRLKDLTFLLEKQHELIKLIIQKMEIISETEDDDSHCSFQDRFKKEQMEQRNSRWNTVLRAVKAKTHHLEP
UniProt O75762, whole entry C641S: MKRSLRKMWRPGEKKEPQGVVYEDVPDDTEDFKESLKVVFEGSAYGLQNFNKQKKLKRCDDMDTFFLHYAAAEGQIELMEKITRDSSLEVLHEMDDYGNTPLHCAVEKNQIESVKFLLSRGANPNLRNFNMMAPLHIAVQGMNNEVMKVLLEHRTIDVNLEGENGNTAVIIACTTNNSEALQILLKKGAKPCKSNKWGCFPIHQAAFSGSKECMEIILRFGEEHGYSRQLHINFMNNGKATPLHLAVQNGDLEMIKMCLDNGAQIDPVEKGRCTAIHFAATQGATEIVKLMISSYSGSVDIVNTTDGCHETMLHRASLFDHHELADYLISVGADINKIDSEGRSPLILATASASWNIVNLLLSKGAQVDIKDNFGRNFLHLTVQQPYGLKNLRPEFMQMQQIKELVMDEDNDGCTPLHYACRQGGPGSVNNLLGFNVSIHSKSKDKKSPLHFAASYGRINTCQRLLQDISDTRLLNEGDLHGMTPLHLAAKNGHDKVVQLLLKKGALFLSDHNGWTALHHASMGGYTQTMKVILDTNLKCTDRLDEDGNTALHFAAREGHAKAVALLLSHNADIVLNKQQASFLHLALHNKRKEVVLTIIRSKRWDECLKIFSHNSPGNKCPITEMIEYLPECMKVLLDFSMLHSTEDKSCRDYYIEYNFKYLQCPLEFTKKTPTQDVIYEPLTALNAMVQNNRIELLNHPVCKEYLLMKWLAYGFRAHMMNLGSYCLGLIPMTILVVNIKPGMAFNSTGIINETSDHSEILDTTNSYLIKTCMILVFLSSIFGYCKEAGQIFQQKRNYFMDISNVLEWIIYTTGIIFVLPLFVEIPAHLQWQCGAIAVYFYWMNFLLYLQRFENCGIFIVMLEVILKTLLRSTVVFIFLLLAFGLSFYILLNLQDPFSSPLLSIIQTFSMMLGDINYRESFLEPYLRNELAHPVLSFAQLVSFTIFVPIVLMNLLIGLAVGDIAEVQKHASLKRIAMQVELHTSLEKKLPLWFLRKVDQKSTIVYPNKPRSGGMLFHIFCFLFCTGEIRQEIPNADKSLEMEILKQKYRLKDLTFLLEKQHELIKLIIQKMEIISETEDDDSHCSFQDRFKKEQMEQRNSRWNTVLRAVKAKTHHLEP
UniProt O75762, whole entry C665S: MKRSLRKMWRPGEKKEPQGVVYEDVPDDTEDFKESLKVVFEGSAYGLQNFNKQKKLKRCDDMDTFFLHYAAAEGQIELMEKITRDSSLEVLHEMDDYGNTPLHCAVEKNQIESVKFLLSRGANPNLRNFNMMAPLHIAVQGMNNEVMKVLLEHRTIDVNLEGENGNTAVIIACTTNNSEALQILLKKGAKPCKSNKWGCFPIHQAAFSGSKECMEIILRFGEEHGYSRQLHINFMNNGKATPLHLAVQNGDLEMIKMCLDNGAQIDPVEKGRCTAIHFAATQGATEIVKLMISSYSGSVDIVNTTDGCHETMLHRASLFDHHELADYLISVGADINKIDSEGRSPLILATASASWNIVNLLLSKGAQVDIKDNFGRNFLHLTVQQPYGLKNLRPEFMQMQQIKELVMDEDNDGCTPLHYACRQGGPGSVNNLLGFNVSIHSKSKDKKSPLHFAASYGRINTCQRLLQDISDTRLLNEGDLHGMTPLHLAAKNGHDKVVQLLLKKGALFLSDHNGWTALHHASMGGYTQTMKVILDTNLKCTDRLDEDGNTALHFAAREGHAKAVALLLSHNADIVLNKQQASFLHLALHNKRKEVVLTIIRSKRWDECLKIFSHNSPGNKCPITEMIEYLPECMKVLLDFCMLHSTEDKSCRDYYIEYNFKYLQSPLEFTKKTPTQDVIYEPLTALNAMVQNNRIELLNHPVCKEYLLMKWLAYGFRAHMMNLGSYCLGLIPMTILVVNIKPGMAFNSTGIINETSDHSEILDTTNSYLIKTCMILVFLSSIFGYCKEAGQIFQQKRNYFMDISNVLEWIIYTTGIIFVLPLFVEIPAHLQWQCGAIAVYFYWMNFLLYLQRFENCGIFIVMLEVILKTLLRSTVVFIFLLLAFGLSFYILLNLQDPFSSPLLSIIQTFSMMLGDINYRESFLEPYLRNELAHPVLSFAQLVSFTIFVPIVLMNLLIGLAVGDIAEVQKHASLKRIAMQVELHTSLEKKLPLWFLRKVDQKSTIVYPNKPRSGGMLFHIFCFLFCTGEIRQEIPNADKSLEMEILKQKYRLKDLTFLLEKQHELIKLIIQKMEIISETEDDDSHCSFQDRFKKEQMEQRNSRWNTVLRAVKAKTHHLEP

SMILES strings stand for the structures. “Also recorded” adds a separate entry of the source.

For one experiment, the system named is TRPA1 C621S mutant. In words: Whole-cell patch-clamp, TRPA1 C621S. The experiment is classed as cell-based, human. The note with it: HEK 293T, 100 nM crotalphine, +120 mV, 25 °C, n = 9. As to the method:
(§1) HEK 293T cells were transiently transfected with human TRPA1 (hTRPA1)-encoding plasmids. Twenty four hours after transfection, the GFP-positive cells were patch-clamped at room temperature (25 °C) with a HEKA EPC10 single patch clamp amplifier (HEKA, Lambrecht, Germany). The currents of TRPA1 were recorded in the whole cell. After obtaining electrical access, a 200 ms voltage ramp from −120 mV to +120 mV followed by a return to the holding potential of −80 mV was applied throughout all compound addition periods to measure the current of TRPA1. For analysis, the currents measured at +120 mV were used. Cell membrane capacitance was recorded directly from the amplifier following whole-cell access. Current density was calculated as the current amplitude divided by the cell membrane capacitance. The voltage protocol was applied every 10 s during the experimental recording period. The extracellular solution contained 137 mM NaCl, 4 mM KCl, 10 mM Glucose, 10 mM HEPES, 1 mM MgCl2, 2 mM CaCl2, pH 7.4. The intracellular medium consisted of 140 mM CsCl, 1 mM MgCl2, 10 mM HEPES, 5 mM EGTA, 2.6 mM CsCl, pH 7.2. All chemicals were of analytical grade.

A further experiment concerns human TRPA1 (hTRPA1). Put plainly: Whole-cell patch-clamp, wild-type TRPA1. The experiment is classed as cell-based. The note with it: HEK 293T cells transfected with hTRPA1, +120 mV, 25 °C. As to the method: as §1
A further experiment has as its system TRPA1 C665S mutant. Put plainly: Whole-cell patch-clamp, TRPA1 C665S. The experiment is classed as cell-based, human. The note with it: HEK 293T, 100 nM crotalphine, +120 mV, 25 °C, n = 9. As to the method:
as §1

The conditions of experiment [1]: cited from earlier work. An excerpt: Importantly, the targeting of ...
A further experiment has as its system TRPA1 ion channel. The note with it: cited from earlier work. An excerpt:
Importantly, the targeting of ... || The motion of transmembrane helices widens both the upper and lower gates of the ion permeation pathway. The upward movement and rotation of S6 expand the lower gate formed by residues I957 and V961. Simultaneously, the movement of the pore helices (P1 and P2) causes the upper gate, formed by residues G914 and D915 within the selectivity filter, to shift upward and dilate. […] Specifically, the pore diameter of the lower gate expands from 5.4 Å to 6.7 Å, while the ...

The subject of another experiment is TRPA1 C641S mutant. Put plainly: Whole-cell patch-clamp, TRPA1 C641S. The experiment is classed as cell-based, human. The note with it: HEK 293T, 100 nM crotalphine, +120 mV, 25 °C, n = 9. As to the method:
as §1

Experiment [2] deals with T1, hTRPA1 C621S mutant (GFP-tagged) (Homo sapiens, UniProt O75762, C621S).
T1 construct: Full-length human TRPA1 protein was expressed in HEK293F cells and purified to homogeneity; twin-Strep (C); made in house; host or cells: HEK293F cells (BacMam baculovirus amplified in SF9)
In words: MST binding of crotalphine to TRPA1 C621S. The note with it: 50 nM EGFP-tagged protein, crotalphine initial concentration 4 μM, 5 min on ice, 22 °C, compared with wild-type, Kd could not be determined. The procedure: (§2) The equilibrium dissociation constant (Kd) value of crotalphine with respect to the wild-type and mutant of hTRPA1 was determined using the Monolith NT.115 instrument produced by NanoTemper (Munich, Germany). First, 10 μL of the target protein with a concentration of 50 nM and an equal volume of crotalphine with an initial concentration of 4 μM were incubated on ice for 5 min. Then, the incubated sample was loaded into capillaries and placed into the instrument for the assessment of the binding affinity. Due to the EGFP fluorescent tag on the protein sample, the nano-blue channel was directly chosen for measurement. The measurements were carried out at 22 °C with 10% LED power and medium MST power. The data were analyzed using Nano-Temper Analysis 2.3 software.

Experiment [3] deals with T2, hTRPA1 C641S mutant (GFP-tagged) (Homo sapiens, UniProt O75762, C641S).
T2 construct: Full-length human TRPA1 protein was expressed in HEK293F cells and purified to homogeneity; twin-Strep (C); made in house; host or cells: HEK293F cells (BacMam baculovirus amplified in SF9)
Put plainly: MST binding of crotalphine to TRPA1 C641S. The procedure: as §2

The target of experiment [4] is T3, hTRPA1 C665S mutant (GFP-tagged) (Homo sapiens, UniProt O75762, C665S).
T3 construct: Full-length human TRPA1 protein was expressed in HEK293F cells and purified to homogeneity; twin-Strep (C); made in house; host or cells: HEK293F cells (BacMam baculovirus amplified in SF9)
In words: MST binding of crotalphine to TRPA1 C665S. The note with it: 22 °C. As to the method:
as §2

As for `NC(=O)CC[C@@H]1NC(=O)[C@@H](NC(=O)[C@H](CC(N)=O)NC(=O)[C@H](CCC(=O)O)NC(=O)[C@@H]2CCCN2C(=O)[C@H](CO)NC(=O)[C@H](Cc2ccccc2)NC(=O)[C@@H]2CCC(=O)N2)CSSC[C@@H](C(=O)O)NC(=O)[C@@H]2CCCN2C(=O)[C@H](CCC(N)=O)NC(=O)[C@H](CO)NC(=O)[C@H](CCC(=O)O)NC(=O)CNC1=O` [crotalphine], in the experiment on TRPA1 C621S mutant, the “current upon crotalphine application, C621S” value is on record as “no detectable currents; also recorded: significant reduction in crotalphine’s effect”. In addition, the “agonist activity at TRPA1” value in the experiment with human TRPA1 (hTRPA1) was “acts as an agonist of TRPA1”. For the same compound, in the experiment with TRPA1 C665S mutant, the “current response, C665S, versus wild-type” value is reported as “current responses similar to those of the wild-type channel”. Also, the antinociceptive effect entry in [1] was “effective and persistent antinociceptive effect”. In [1] (repeated administration, unlike opioid drugs), the “tolerance on repeated administration” value is “does not induce tolerance”. Besides, the “activation and desensitization of TRPA1” value with TRPA1 ion channel (agonist) is “specifically activating and strongly desensitizing the TRPA1 ion channel”. The “extent of TRPA1 activation” value in the experiment on TRPA1 ion channel is given as “partially activates TRPA1”. Besides, in the experiment with TRPA1 C641S mutant, the “current response, C641S, versus wild-type” value was “current responses similar to those of the wild-type channel”. In addition, in experiment [2], the “interaction with crotalphine / Kd, C621S” value is given as “significantly weakened, to the extent that the dissociation constant (Kd) could not be determined”. For the same compound, the “change of interaction with crotalphine versus wild-type, C641S” value in [3] (22 °C) is on record as “does not significantly alter the interaction with crotalphine”. Also, the equilibrium dissociation constant (Kd) in [3] (Monolith NT.115, 50 nM EGFP-tagged protein, crotalphine initial concentration 4 μM, 5 min on ice, measured at 22 °C, read-out: dissociation constant (Kd), C641S) is 123 nM. The “change of interaction with crotalphine versus wild-type, C665S” value in experiment [4] was “does not significantly alter the interaction with crotalphine”.
